Experimental data reported in ChEMBL document CHEMBL5528068, “Structure-Activity Relationship Studies and Optimization of 4-Hydroxypyridones as GPR84 Agonists” (J Med Chem, 2024).
Calls of active or inactive are those of the source.

Assays:
Assay type in all cases: functional, cell-based
[1] = target: T1, Free fatty acid receptor 2 (Homo sapiens) (UniProt O15552); assay: Agonist activity at Gq-coupled human FFA2 expressed in Flp-In-T-REx-293 cells assessed as forskolin induced cAMP production at 10 uM incubated for 25 mins in presence of IBMX by time-resolved fluorescence based assay
T1 sequence (whole entry): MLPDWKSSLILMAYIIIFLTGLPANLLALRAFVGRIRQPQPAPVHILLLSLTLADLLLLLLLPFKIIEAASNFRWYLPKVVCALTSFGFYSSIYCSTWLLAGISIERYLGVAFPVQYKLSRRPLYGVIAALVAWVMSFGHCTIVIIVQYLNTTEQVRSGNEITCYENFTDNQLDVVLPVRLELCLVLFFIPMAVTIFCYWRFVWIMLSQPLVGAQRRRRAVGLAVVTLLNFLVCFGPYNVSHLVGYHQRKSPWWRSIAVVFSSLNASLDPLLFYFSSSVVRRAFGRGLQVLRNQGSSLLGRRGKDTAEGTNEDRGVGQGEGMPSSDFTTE

[2] = target: T1, Free fatty acid receptor 2 (Homo sapiens); assay: Antagonist activity at Gq-coupled human FFA2 expressed in Flp-In-T-REx-293 cells assessed as reduction in forskolin induced cAMP production at 10 uM preincubated for 20 mins in presence of IBMX followed by sodium propionate and forskolin addition for 25 mins by time-resolved fluorescence based assay; details: time 45.0 min
[3] = target: T2, Free fatty acid receptor 3 (Homo sapiens) (UniProt O14843); assay: Agonist activity at human FFA3 expressed in Flp-In-T-REx-293 cells assessed as forskolin induced cAMP production at 10 uM incubated for 45 mins in presence of IBMX by time-resolved fluorescence based assay
T2 sequence (whole entry): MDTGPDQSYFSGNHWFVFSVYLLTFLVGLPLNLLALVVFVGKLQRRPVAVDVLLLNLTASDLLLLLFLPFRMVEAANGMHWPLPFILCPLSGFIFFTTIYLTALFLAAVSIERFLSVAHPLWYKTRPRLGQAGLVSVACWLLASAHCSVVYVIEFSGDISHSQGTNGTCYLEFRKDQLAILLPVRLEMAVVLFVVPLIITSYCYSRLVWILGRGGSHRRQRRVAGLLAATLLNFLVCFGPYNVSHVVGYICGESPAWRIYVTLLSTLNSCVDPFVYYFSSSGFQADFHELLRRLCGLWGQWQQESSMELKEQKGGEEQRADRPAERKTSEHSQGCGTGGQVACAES

[4] = target: T2, Free fatty acid receptor 3 (Homo sapiens); assay: Antagonist activity at human FFA3 expressed in Flp-In-T-REx-293 cells assessed as reduction in forskolin induced cAMP production at 10 uM preincubated for 30 mins in presence of IBMX followed by sodium propionate and forskolin addition for 45 mins by time-resolved fluorescence based assay; details: time 75.0 min
[5] = target: T3, Free fatty acid receptor 4 (Homo sapiens) (UniProt Q5NUL3); assay: Agonist activity at FFA4 (unknown origin) expressed in HEK293T cells transfected with YFP/beta-arrestin 2N-Luc at 10 uM incubated for 5 mins by plate reader analysis
T3 sequence (whole entry): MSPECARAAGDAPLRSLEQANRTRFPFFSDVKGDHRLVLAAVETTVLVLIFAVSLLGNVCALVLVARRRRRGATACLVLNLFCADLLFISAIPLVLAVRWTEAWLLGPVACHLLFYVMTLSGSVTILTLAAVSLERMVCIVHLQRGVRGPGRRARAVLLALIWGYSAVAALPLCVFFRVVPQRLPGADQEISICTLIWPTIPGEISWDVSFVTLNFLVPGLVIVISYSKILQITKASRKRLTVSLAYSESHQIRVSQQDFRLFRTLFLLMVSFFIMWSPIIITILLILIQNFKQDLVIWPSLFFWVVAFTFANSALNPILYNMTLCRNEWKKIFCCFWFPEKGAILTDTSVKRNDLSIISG

[6] = target: T3, Free fatty acid receptor 4 (Homo sapiens); assay: Antagonist activity at FFA4 (unknown origin) expressed in HEK293T cells transfected with YFP/beta-arrestin 2N-Luc at 10 uM preincubated for 15 mins prior to Nano-Glo addition for 10 mins followed by TUG-891 addition for 5 mins by plate reader analysis; details: time 30.0 min

Measured: Activity

O=c1cc(O)cc(-c2ccc(Oc3ccccc3)nc2)[nH]1
inactive: all assays above

CCCc1ccc(CCc2cc(O)cc(=O)[nH]2)cc1
inactive: all assays above
